By UniProt entry, the sequences of proteins in these tests, tags left out.
UniProt P11309, whole entry: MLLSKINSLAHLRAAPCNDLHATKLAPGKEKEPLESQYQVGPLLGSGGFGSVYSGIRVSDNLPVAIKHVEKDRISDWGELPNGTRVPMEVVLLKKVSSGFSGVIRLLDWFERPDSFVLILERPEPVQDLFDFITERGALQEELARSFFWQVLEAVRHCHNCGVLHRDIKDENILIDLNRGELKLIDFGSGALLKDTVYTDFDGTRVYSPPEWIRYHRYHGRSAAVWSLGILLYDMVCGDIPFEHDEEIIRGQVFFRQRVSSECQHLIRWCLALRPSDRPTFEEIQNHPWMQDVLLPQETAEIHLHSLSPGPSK

In ChEMBL document CHEMBL3632547, “Discovery of 3,5-substituted 6-azaindazoles as potent pan-Pim inhibitors” (Bioorg Med Chem Lett, 2015):

Biological target: Serine/threonine-protein kinase pim-1 (Homo sapiens, UniProt P11309)

pKi: 9.85
SMILES: Cn1cc(-c2cc3c(-c4cccc(N5CCC[C@@H](N)C5)n4)n[nH]c3cn2)cn1

pKi: −log10 of the molar value.
